Data from EP1931657B1, “NOVEL HIGH AFFINITY QUINOLINE-BASED KINASE LIGANDS” (Merck Sharp & Dohme Corp., priority 2005, dated 2007).

biological target: CDK-2 (Homo sapiens, UniProt P24941); assay: CDK-2 inhibition, fluorescence polarization displacement assay

Row | IC50 [µM] | SMILES
1 | < 1 | Cc1cnc([C@H](Cc2ccc(O)cc2)NC(=O)c2cc(C(=O)O)c3cc(-c4cccc(C(F)(F)F)c4)ccc3n2)o1 [Compound 45]
2 | > 40 | COC[C@H](Cc1ccc(O)cc1)NC(=O)c1cc(C(=O)OCCN(C)C)c2cc(-c3cccc(C(F)(F)F)c3)ccc2n1 [Compound 175]
3 | > 40 | COC[C@H](Cc1ccc(O)cc1)NC(=O)c1cc(C(=O)OC[C@@H](N)C(C)C)c2cc(-c3cccc(C(F)(F)F)c3)ccc2n1 [Compound 176]
